Earlier results on one molecule are cited in paper PMC3813957 (Cancer prevention research (Philadelphia, Pa.), 2013).

Each structure is given as a SMILES string. “Also recorded” adds a separate entry of the source.

Data set [1] has as its system ER+ tumors with EGFR expression. Conditions: gefitinib alone for up to 16 weeks; cited from earlier work.
Data set [2] has as its system phosphorylation of EGFR, AKT and ERK. Conditions: daily dosing, immunohistochemistry; cited from earlier work.

Take `COc1cc2ncnc(Nc3ccc(F)c(Cl)c3)c2cc1OCCCN1CCOCC1` [gefitinib]: in data set [1], the “tumors showing a complete response” value is recorded as “Roughly 40%”. Moreover, in data set [2], the “levels of phosphorylated EGFR and downstream phosphorylated proteins AKT and ERK” value is given as “decreased; also recorded: inhibited; also recorded: strongly inhibited”.
